Laboratory results from patent US20140303090A1, “Smac Mimetic Therapy” (TETRALOGIC PHARMACEUTICALS CORPORATION, priority 2013, published 2014).

The chains behind the UniProt entries cited, without tags or fusion partners. Residues count along the entry.
UniProt Q13490, whole entry: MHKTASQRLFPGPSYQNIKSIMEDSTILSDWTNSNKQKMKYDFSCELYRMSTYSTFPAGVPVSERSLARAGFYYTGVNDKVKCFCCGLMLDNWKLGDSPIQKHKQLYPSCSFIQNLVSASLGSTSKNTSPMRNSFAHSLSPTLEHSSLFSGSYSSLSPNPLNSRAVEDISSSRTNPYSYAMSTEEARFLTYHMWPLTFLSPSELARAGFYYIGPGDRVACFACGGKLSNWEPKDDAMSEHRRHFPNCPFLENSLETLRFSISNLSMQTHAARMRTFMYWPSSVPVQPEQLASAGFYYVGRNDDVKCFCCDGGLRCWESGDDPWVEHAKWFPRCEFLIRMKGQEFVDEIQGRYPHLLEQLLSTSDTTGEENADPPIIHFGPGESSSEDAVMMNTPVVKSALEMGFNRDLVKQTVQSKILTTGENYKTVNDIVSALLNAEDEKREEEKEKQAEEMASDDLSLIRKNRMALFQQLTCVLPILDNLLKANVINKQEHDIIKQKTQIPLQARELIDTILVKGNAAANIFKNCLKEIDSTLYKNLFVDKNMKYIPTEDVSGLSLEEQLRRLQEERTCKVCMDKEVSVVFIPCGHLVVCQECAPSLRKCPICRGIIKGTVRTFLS
UniProt Q13490, 253-363 limits assumed: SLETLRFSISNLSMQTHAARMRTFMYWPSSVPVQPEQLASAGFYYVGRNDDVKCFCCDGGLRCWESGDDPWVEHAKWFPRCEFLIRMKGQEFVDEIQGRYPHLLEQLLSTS
UniProt Q13489, whole entry: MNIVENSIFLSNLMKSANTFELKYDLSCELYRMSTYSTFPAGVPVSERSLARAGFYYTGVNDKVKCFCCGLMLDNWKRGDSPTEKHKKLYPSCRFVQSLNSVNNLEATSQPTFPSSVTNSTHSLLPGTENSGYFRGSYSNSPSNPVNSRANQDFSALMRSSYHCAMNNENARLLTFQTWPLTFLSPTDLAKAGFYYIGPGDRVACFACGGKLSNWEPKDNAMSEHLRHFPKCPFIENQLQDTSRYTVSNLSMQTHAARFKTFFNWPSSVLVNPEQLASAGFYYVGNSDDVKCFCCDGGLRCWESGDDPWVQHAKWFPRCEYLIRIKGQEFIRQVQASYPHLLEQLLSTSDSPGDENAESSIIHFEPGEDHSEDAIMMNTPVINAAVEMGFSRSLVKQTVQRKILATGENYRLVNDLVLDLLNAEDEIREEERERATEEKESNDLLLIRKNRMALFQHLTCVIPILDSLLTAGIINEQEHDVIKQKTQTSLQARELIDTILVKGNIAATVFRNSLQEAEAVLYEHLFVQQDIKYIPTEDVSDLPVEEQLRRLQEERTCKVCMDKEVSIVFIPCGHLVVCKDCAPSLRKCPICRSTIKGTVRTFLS

How the values were obtained:
[1] = target: GFP-cIAP1 (Homo sapiens, UniProt Q13490); experiment: GFP-cIAP1 degradation assay (loss of GFP signal, flow cytometry); type: cell-based
[2] = target: GFP-cIAP2 (Homo sapiens, UniProt Q13489); experiment: GFP-cIAP2 degradation assay (loss of GFP signal, flow cytometry); type: cell-based
Method: In this assay, treatment of GFP-cIAP-expressing melanoma cell line A375 with Smac mimetic, Compound 15, for two hours, results in degradation of cIAP-1 and cIAP-2 with concomitant loss of GFP-signal. (FIG. 1) The EC50's for GFP-tagged cIAP-1 and GFP-tagged cIAP-2 proteins were 17±11 nM and 108±46 nM, respectively.

[3] = tested on: TNF-mediated NF-κB-luc; conditions: read-out: Inhibition of TNF-mediated NF-κB-luc @ 2 h, EC50
[4] = target: cIAP1 BIR3 (Homo sapiens, UniProt Q13490); experiment: Fluorescence polarization displacement assay, cIAP1 BIR3; conditions: read-out: cIAP1 BIR3, Ki
[5] = read-out: ΔGFP-cIAP1 EC50, 2 h, 2 h, A375 cells
[6] = read-out: ΔGFP-cIAP1 EC50, 24 h, 24 h
[7] = read-out: ΔGFP-cIAP2 EC50, 2 h, 2 h, A375 cells
[8] = read-out: ΔGFP-cIAP2 EC50, 24 h, 24 h

CN[C@@H](C)C(=O)NCC(=O)N1C[C@@H](O)C[C@H]1Cc1c(-c2[nH]c3cc(F)ccc3c2C[C@@H]2C[C@H](O)CN2C(=O)CNC(=O)[C@H](C)NC)[nH]c2cc(F)ccc12
EC50 [1, 5]: 2580 nM
EC50 [1, 6]: 847 nM
EC50 [2, 7]: 4600 nM
EC50 [2, 8]: 5300 nM
EC50 [3]: 707 nM
Ki [4]: 65 nM

CN[C@@H](C)C(=O)N[C@@H](C)C(=O)N1C[C@@H](O)C[C@H]1Cc1c(-c2[nH]c3cc(F)ccc3c2C[C@@H]2C[C@H](O)CN2C(=O)[C@H](C)NC(=O)[C@H](C)NC)[nH]c2cc(F)ccc12
EC50 [1, 5]: 463 nM
EC50 [1, 6]: 65 nM
EC50 [2, 7]: 3130 nM
EC50 [2, 8]: 3880 nM
EC50 [3]: 584 nM
Ki [4]: 92 nM

Read-outs that look alike come from different tables or passages of the source.
